Consider two substances from patent US7109376B2, “Benzene and naphthylene derivatives and their use as UV screening agents” (DSM IP Assets B.V., priority 2001, dated 2006).

For data set [1] the following is noted: irradiated in high dilution with a Hg-lamp 150 W (Heraeus).

With “1,4-bis-[2-(4-(or 5-)tert.-pentyl-7-(1-pentyl-allyl)(and/or -7-oct-3-en-2-yl)-benzoxazol)-yl]-benzene [Example 10]”, the “mixability with conventional cosmetic solvents” value was “easily mixable”. Further, the photostability result in data set [1] is “photostable”.

As to “1,4-bis-[2-(5-tert.-butyl-7-(1-pentyl-allyl)- and/or -7-(oct-3-en-2-yl)benzoxazol)-yl]-benzene [Example 7]”, the “mixability with conventional cosmetic solvents” value is “easily mixable”. The photostability entry in data set [1] is “photostable”.
